The other results are listed elsewhere or left out. Entries that show only a call come without a potency. Records with an inconclusive call do not appear. Active and inactive are the calls of the source. Calls follow the shape of the dose curve; as a rule, active = well fitted curve in the direction sought with a large enough effect in the signal ratio (not every such curve was filed as active); inconclusive = small, poorly fitted or top-dose-only effect, or a change in a side signal; inactive = flat fitted curve, though single readings scatter; the % refers to the signal ratio.
Assay: IkB Signaling
Settings: ABC-DLBCL IkBa-CBG/CBR dual luciferase ratio (green luciferase fused to IkBa over red control in OCI-Ly3 lymphoma cells), 4 h; series mostly up to 57.1 µM
Description: NIH Molecular Libraries Screening Centers Network [MLSCN]
NIH Chemical Genomics Center [NCGC]
Nuclear factor kappa-B (NF-kappa-B) plays an important role in normal B cell development and survival. Diffuse large B cell lymphoma (DLBCL) is the most commonly observed type of non-Hodgkin's lymphoma. Gene expression analysis has identified an activated B cell-like subtype of DLBCL (ABC-DLBCL) which expresses known NF-kappa-B target genes. […] However, targets upstream of IKK have been largely unexplored and so nodes upstream of IKK in the NF-kappa-B pathway remain untested due to the lack of chemical probes.
A cell-sensor assay for I-kappa-B-alpha stabilization was developed with NIH investigator Dr. R. Eric Davis in Dr. Louis M. Staudt's laboratory. The assay uses green (CBG68) and red (CBR) emitting beetle luciferases [Chroma-Glo(TM) developed by Promega Corp.] where the green luciferase is fused to I-kappa-B-alpha and the red luciferase is present in its native state. Both luciferase genes are stably present in the OCI-Ly3 human ABC DLBCL cell line, but their expression is under the control of tetracycline-inducible promoters. Following the addition of doxycycline to induce expression of the luciferases, the green luminescence in control cultures rises only slowly because the CBG fusion partner I-kappa-B-alpha is targeted by IKK activity for rapid degradation. In contrast, green luminescence rises rapidly in the presence of proteasome inhibitors or IKK inhibitors. The rise in red luminescence of CBR is not affected by proteasome or IKK inhibitors, and serves as normalization for cell number and nonspecific effects. Compounds were screened as a concentration-titration series that ranged from 57 uM to 0.7 nM.
NCGC Assay Protocol Summary:
Cells were seeded in 1536-well plates at 5000 cells/3ul in IMDM medium containing 0.5% FBS, w/o phenol red, L-glutamine, 25 mM HEPES, 3 mg/ml sodium bicarbonate. After centrifugation for 1 min. at 1000 rpm, 23 nl of compounds or DMSO were delivered to each well using a pin tool. Then 1ul 80ng/ml doxycycline was dispensed into white solid 1536-well plates and the plates were incubated at 37C/5% C02 in a cell incubator for 4 hrs. Then 4 ul Chroma-Glo luminescent substrate mix (Promega) was added to each well. The plate was incubated at R.T. for 10-15 min. The plates were measured on a ViewLux plate reader for green luminescence (540/20 nm filter) and red luminescence (618/8 nm filter). The green and red luminescent signals were corrected for red and green luminescence filter overlap using previously determined filter calibration constants (determined using the procedure outlined in the Promega Technical Manual). The %Activity was determined from the ratio of corrected green/red luminescent values. Green luminescent and ratio %Activity was determined by normalizing to the difference in signal between basal cells (0% Activity) and cells incubated with 10 uM of the proteasome inhibitor MG-132 (100% Activity). Red luminescent %Activity was normalized to the difference between red luminesence in basal cells (0%Activity) and zero luminescence (-100% Activity).
Concentration-response curves were fitted to the signals arising from the green luminescence (I-kappa-B-alpha-luciferase fusion; IkB-luc) and the red luminescence (unfused luciferase; luc) as well as the calculated ratio. The concentration-effect curves were then classified based on curve quality (r2), response magnitude and degree of measured activity. Compounds were then categorized based on their concentration-response curves for all three datasets (Ikb-luc, luc and ratio).
Keywords: IKK, I-kappa-B, IkB, IkBa, cytotoxicity, luminescence, MLSMR, MLSCN, NIH Roadmap, qHTS, NCGC
Potency is read from the fitted curve at half-maximal effect.

SMILES | IkBa stabilization activation | Potency
CN(C(=O)Cc1ccc(Cl)c(Cl)c1)[C@@H]1CC[C@@]2(CCCO2)C[C@H]1N1CCCC1 | inactive | 
NS(=O)(=O)Cc1ccc([As](=O)(O)O)cc1 | inactive: 1.33% [at 11.4 µM, scaled: untreated 0%, proteasome inhibitor 100%] | 
O=C(CC(=O)c1ccccc1)O[C@H]1CN2CCC1CC2 | inactive: 0.569% [at 11.4 µM, scaled: untreated 0%, proteasome inhibitor 100%] | 
CCOP1(=S)c2c(C)nn(CCC#N)c2N=C(c2ccc(F)cc2)N1C (configuration not stated) | inactive | 
NC(=O)Nc1ccc([As](=O)(O)O)cc1 | inactive | 
O=[As](O)(O)c1ccc([As](=O)(O)O)cc1 | inactive: 2.33% [at 11.4 µM, scaled: untreated 0%, proteasome inhibitor 100%] | 
O=P(Nc1nccs1)(c1ccccc1)c1nc2ccccc2s1 (configuration not stated) |  | active: 3.98 µM
CCOP1(=S)c2c(C)nn(CCC#N)c2N=C(c2ccccc2F)N1C (configuration not stated) | inactive | 
O=P1(Nc2ccc(Br)cn2)COc2ccccc2OC1 | inactive | 
O=P1(Nc2ncccn2)COc2ccccc2OC1 | inactive | 
Cc1nn(-c2ccccc2)c2c1P(=O)(N1CCOCC1)N(C)C(c1ccccc1)=N2 (configuration not stated) | inactive | 
CN(C(=O)Cc1ccc(Cl)c(Cl)c1)[C@@H]1CCCC[C@H]1N1CCCC1 | inactive | 
Clc1n[nH]nc1-c1nn[nH][15n]1 | inactive | 
O=P1(Nc2ccccn2)COc2ccccc2OC1 | inactive | 
O=C(COc1ccccc1)OC1CN2CCC1CC2 (configuration not stated) | inactive | 
O=C(O)[C@@H](O)c1ccc([As](=O)(O)O)cc1 | inactive: 1.01% [at 11.4 µM, scaled: untreated 0%, proteasome inhibitor 100%] | 
COP1(=S)c2c(C)nn(CCC#N)c2N=C(c2ccc(F)cc2)N1C (configuration not stated) | inactive | 
[N-]=[N+]=NCC(N)=O | inactive: 2.04% [at 11.4 µM, scaled: untreated 0%, proteasome inhibitor 100%] | 
O=[As]c1ccc(S(=O)(=O)NCCO)cc1 (configuration not stated) | inactive: 4.44% [at 11.4 µM, scaled: untreated 0%, proteasome inhibitor 100%] | 

SMILES | IkBa stabilization activation | Potency
NC(=O)Nc1cc([As](=O)(O)O)cc(I)c1O | inactive: 1.12% [at 11.4 µM, scaled: untreated 0%, proteasome inhibitor 100%] | 
O=C(OC1CN2CCC1CC2)C12CC3CC(CC(C3)C1)C2 (configuration not stated) | inactive | 
NCC[C@@H](N)CSP(=O)(O)O | inactive: 0.365% [at 11.4 µM, scaled: untreated 0%, proteasome inhibitor 100%] | 
O=[N+]([O-])c1ccc(C[As](=O)(O)O)cc1 | inactive: 8.68% [at 11.4 µM, scaled: untreated 0%, proteasome inhibitor 100%] | 
C(Cc1nn[nH]n1)c1nn[nH]n1 | inactive: -0.231% [at 11.4 µM, scaled: untreated 0%, proteasome inhibitor 100%] | 
[N-]=[N+]=NCC(O)CN=[N+]=[N-] (configuration not stated) | inactive: 0.463% [at 11.4 µM, scaled: untreated 0%, proteasome inhibitor 100%] | 
CN(C(=O)Cc1ccc(Cl)c(Cl)c1)[C@H]1CCCC[C@@H]1N1CCCC1 | inactive | 
CN(C(=O)Cc1ccccc1)[C@@H]1CC[C@@]2(CCCO2)C[C@H]1N1CCCC1 | inactive | 
O=C(CO)Nc1ccc([As](=O)(O)O)cc1 | inactive: 1.3% [at 11.4 µM, scaled: untreated 0%, proteasome inhibitor 100%] | 
C[C@@H](O)COc1ccc([As](=O)(O)O)cc1N | inactive: 1.06% [at 11.4 µM, scaled: untreated 0%, proteasome inhibitor 100%] | 
CN1CCC[C@H](OC(=O)C(c2ccccc2)c2ccccc2)C1 | inactive: -0.385% [at 11.4 µM, scaled: untreated 0%, proteasome inhibitor 100%] | 
c1nnnn1CCn1cnnn1 | inactive | 
O=P(Nc1nccs1)(c1ccccc1)c1ccccc1 | inactive | 
O=C(OC1CN2CCC1CC2)c1cccc(Cl)c1 (configuration not stated) | inactive | 
Cc1cc([N+](=O)[O-])cc([N+](=O)[O-])c1O | inactive | 
[N-]=[N+]=Nc1ccc([As](=O)(O)O)cc1 | inactive: 0.237% [at 11.4 µM, scaled: untreated 0%, proteasome inhibitor 100%] | 
COC(=O)c1cc2c(s1)N=C(c1ccccc1)N(C)P2(=O)N1CCOCC1 (configuration not stated) | inactive | 
O=P1(Nc2nc3ccc(Cl)cc3s2)COc2ccccc2O1 (configuration not stated) | inactive | 
